The target of one assay is Mu-type opioid receptor (Rattus norvegicus, UniProt P33535). In words: Displacement of [3H]-diprenorphine from rat MOR expressed in CHO cell membrane assessed as inhibition constant incubated for 30 mins by liquid scintillation counting method. (In general: Loss of bound radioactivity is the signal in a displacement assay; it reports binding, not function.)
In assay [1] the target is Delta-type opioid receptor (Rattus norvegicus, UniProt P33533). In words: Displacement of [3H]-diprenorphine from rat DOR expressed in CHO cell membrane assessed as inhibition constant incubated for 30 mins by liquid scintillation counting method.

Sequences of proteins named here, by UniProt entry; tags and fusion partners are left off.
UniProt P33535, whole entry, looked up: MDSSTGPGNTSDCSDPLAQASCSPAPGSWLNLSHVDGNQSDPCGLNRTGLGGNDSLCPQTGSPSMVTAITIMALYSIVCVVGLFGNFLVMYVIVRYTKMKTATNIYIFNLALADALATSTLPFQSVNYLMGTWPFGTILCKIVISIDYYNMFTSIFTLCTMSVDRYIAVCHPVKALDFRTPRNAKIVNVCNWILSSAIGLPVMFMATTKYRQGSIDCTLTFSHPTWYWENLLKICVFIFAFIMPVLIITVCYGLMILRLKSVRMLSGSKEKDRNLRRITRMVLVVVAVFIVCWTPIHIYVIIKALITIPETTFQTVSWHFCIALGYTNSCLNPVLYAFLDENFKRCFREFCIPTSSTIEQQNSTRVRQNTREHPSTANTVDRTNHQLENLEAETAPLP
UniProt P33533, whole entry, looked up: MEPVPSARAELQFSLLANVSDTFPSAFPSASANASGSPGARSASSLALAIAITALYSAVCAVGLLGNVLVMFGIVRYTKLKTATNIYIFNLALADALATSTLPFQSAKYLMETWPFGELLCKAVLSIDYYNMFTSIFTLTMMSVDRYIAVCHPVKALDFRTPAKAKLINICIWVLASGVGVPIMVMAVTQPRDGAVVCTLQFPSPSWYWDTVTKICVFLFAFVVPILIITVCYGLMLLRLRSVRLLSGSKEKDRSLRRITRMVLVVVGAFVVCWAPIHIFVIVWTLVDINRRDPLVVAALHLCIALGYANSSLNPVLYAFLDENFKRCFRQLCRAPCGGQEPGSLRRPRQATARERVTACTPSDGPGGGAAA

Some results are limits rather than exact numbers.

In general, Ki refers to a measure of affinity in units of concentration, obtained from inhibition or displacement. In the case of `CN(C(=O)Cc1ccc(Cl)c(Cl)c1)[C@@H]1CCCC[C@H]1N1CCCC1`, the Ki on Mu-type opioid receptor is 1.4 µM; in assay [1], above 5 µM.

(Values after ChEMBL document CHEMBL6109111, “Structure-activity relationship analysis of meta-substituted N-cyclopropylmethyl-nornepenthones with mixed KOR/MOR activities” (Eur J Med Chem, 2025).)
